The list shows a part of the results. Calls of active or inactive are those of the source.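 Rule for the calls: active = activation factor of 2 or more at 20 µM, relative to plate controls; inactive = the rest.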
Molecular target: Mannose-6-phosphate isomerase (Homo sapiens) (UniProt P34949)
Assay: activators of human PMI, primary screen, biochemical, fluorescence intensity, near-Km mannose 6-phosphate (AID 1214)
Details: purified human PMI, coupled resazurin fluorescence, 20 min; at 20 µM; stronger effect = higher value; 1 = vehicle control, 0 substrate-free wells

The chains behind the UniProt entries cited, without tags or fusion partners. Where a name states a change or a piece, a line headed by the entry shows the natural chain unless it says otherwise.
UniProt P34949: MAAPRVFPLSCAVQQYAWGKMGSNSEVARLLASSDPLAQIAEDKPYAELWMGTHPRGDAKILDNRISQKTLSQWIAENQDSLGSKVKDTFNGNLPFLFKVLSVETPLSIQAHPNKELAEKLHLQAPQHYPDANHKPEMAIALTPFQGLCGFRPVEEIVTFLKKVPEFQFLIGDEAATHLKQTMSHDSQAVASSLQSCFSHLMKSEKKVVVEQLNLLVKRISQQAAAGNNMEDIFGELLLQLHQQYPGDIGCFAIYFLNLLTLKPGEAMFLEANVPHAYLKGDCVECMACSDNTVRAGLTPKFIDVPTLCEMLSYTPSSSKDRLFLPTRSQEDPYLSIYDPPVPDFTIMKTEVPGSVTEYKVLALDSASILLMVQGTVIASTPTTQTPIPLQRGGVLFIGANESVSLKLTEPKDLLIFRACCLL

Question: For `O=[N+]([O-])c1ncn(CCn2ncnc2[N+](=O)[O-])n1`, which activation factor is on record?
Answer: Its activation factor is inactive: 1.1.

Question: How did the activation factor turn out when `CC(C)=N/N=C(\N)N[N+](=O)[O-]` was run?
Answer: The activation factor was inactive: 1.1.

Question: Which activation factor does the source give for `COc1ccc(C2=NCC(CBr)S2)cc1` (configuration not stated) here?
Answer: The activation factor was inactive: 0.9.

Question: For `O=[N+]([O-])c1cccc2n[nH]nc12`, which activation factor is on record?
Answer: The activation factor was inactive: 1.1.

Question: With `CCc1nc2c(n1)c1c(non1O)c1c2no[n+]1[O-]` as the molecule, how does the activation factor read?
Answer: The activation factor was inactive: 0.4.

Question: With `O=[N+]([O-])c1cc([N+](=O)[O-])c(CCNc2ccccc2)c([N+](=O)[O-])c1` as the molecule, how does the activation factor read?
Answer: The activation factor was inactive: 1.2.

Question: `CC(C)CC(=O)NC(Sc1ccc(Cl)cc1)C(Cl)(Cl)Cl` (configuration not stated) was tested. Which activation factor did it give?
Answer: Its activation factor is inactive: 1.1.

Question: Which activation factor does the source give for `Cc1c2non([O-])c-2c(C)[n+](=O)[n+]1[O-]` here?
Answer: Its activation factor is inactive: 0.6.

Question: Which activation factor does the source give for `NC(=O)c1cc([N+](=O)[O-])cc([N+](=O)[O-])c1N` here?
Answer: The activation factor was inactive: 1.1.

Question: Which activation factor does the source give for `Clc1ccc(Cl)c(NC2=NCC(CBr)S2)c1` (configuration not stated) here?
Answer: Its activation factor is inactive: 1.3.

Question: Which activation factor does the source give for `CN1CCCC(OC(=O)C(c2ccccc2)c2ccccc2)C1` (configuration not stated) here?
Answer: The activation factor was inactive: 1.1.

Question: `CCN(N=Nc1nonc1N)c1nonc1N` was tested. Which activation factor did it give?
Answer: The activation factor was inactive: 0.8.

Question: `Cc1cc(SC(NC(=O)c2ccc(F)cc2)C(Cl)(Cl)Cl)ncn1` (configuration not stated) was tested. Which activation factor did it give?
Answer: The activation factor was inactive: 1.1.

Question: With `CC(=O)NC(SC(=S)N(CC(C)C)CC(C)C)C(Cl)(Cl)Cl` (configuration not stated) as the molecule, how does the activation factor read?
Answer: The activation factor was inactive: 1.1.

Question: `Cc1ccc(OP(=O)(Nc2ccccn2)Oc2ccc(C)cc2)cc1` was tested. Which activation factor did it give?
Answer: The activation factor was inactive: 0.9.

Question: Which activation factor does the source give for `CCC(=O)N1C2C3N(C(=O)CC)C1C1N(C(=O)CC)C(C(N1C(=O)CC)N3C(=O)CC)N2C(=O)CC` here?
Answer: Its activation factor is inactive: 1.1.

Question: Which activation factor does the source give for `O=C(NC1CCS(=O)(=O)C1)NP(=S)(Oc1ccccc1)Oc1ccccc1` (configuration not stated) here?
Answer: The activation factor was inactive: 0.8.

Question: With `c1ccc(-c2nn[nH]n2)c(-c2nn[nH]n2)c1` as the molecule, how does the activation factor read?
Answer: Its activation factor is inactive: 1.2.

Question: `CC(=O)Nc1ccc(Oc2c([N+](=O)[O-])cc([N+](=O)[O-])cc2[N+](=O)[O-])cc1` was tested. Which activation factor did it give?
Answer: The activation factor was inactive: 1.2.

Question: Which activation factor does the source give for `O=P1(Nc2nc3ccc(Cl)cc3s2)COc2ccccc2O1` (configuration not stated) here?
Answer: The activation factor was inactive: 0.8.

Question: Which activation factor does the source give for `c1nnnn1CCn1cnnn1` here?
Answer: The activation factor was inactive: 0.9.

Question: For `C(Cc1nn[nH]n1)Cc1nn[nH]n1`, which activation factor is on record?
Answer: The activation factor was inactive: 0.7.

Question: For `O=C(OC1CN2CCC1CC2)c1cccc(Cl)c1` (configuration not stated), which activation factor is on record?
Answer: The activation factor was inactive: 0.9.

Question: With `O=P1(Nc2ncccn2)COc2ccccc2OC1` as the molecule, how does the activation factor read?
Answer: Its activation factor is inactive: 1.1.

Question: How did the activation factor turn out when `Cc1ccc(OCC(=O)OC2CN3CCC2CC3)cc1` (configuration not stated) was run?
Answer: Its activation factor is inactive: 0.9.

Question: With `Cc1nn(-c2ccccc2)c2c1P(=O)(N1CCOCC1)N(C)C(c1ccccc1)=N2` (configuration not stated) as the molecule, how does the activation factor read?
Answer: The activation factor was inactive: 0.9.

Question: With `CC1CCC(C(C)C)C(OP(=O)(Nc2ccccn2)c2ccccc2)C1` (configuration not stated) as the molecule, how does the activation factor read?
Answer: The activation factor was inactive: 1.1.

Question: How did the activation factor turn out when `CN(C)C1(CNC(=O)c2ccc(S(C)(=O)=O)cc2)CCCCC1` was run?
Answer: Its activation factor is inactive: 0.9.

Question: For `CC(C)/C=N\N=C(\N)N[N+](=O)[O-]`, which activation factor is on record?
Answer: The activation factor was inactive: 1.2.

Question: With `O=P1(Nc2ccccn2)COc2ccccc2OC1` as the molecule, how does the activation factor read?
Answer: The activation factor was inactive: 0.9.

Question: With `Clc1n[nH]nc1-c1nn[nH][15n]1` as the molecule, how does the activation factor read?
Answer: The activation factor was inactive: 0.9.

Question: How did the activation factor turn out when `CCOP(=O)(Nc1cccc2ccccc12)OCC` was run?
Answer: Its activation factor is inactive: 0.9.

Question: For `CCOP1(=S)c2c(C)nn(CCC#N)c2N=C(c2ccccc2F)N1C` (configuration not stated), which activation factor is on record?
Answer: Its activation factor is inactive: 0.9.

Question: Which activation factor does the source give for `O=P(Nc1nccs1)(c1ccccc1)c1nc2ccccc2s1` (configuration not stated) here?
Answer: The activation factor was inactive: -0.1.

Question: Which activation factor does the source give for `ClCCSc1nnc(-c2cccnc2)o1` here?
Answer: The activation factor was inactive: 0.9.

Question: `CC(C)NC(=O)NP(=O)(Oc1ccccc1)Oc1ccccc1` was tested. Which activation factor did it give?
Answer: Its activation factor is inactive: 0.9.

Question: Which activation factor does the source give for `O=[N+]([O-])c1cc([N+](=O)[O-])c(-c2ccn[nH]2)s1` here?
Answer: Its activation factor is inactive: 0.9.

Question: `O=C(OC1CN2CCC1CC2)C12CC3CC(CC(C3)C1)C2` (configuration not stated) was tested. Which activation factor did it give?
Answer: Its activation factor is inactive: 1.1.

Question: Which activation factor does the source give for `Cc1c2c(nc3ccccc13)SC(C(Cl)Cl)C2` (configuration not stated) here?
Answer: Its activation factor is inactive: 0.9.

Question: `CCC(C)N(CC(C)C)C(=S)SC(NC(C)=O)C(Cl)(Cl)Cl` (configuration not stated) was tested. Which activation factor did it give?
Answer: Its activation factor is inactive: 1.2.

Question: How did the activation factor turn out when `O=P(Nc1ccccn1)(c1cccc2ccccc12)c1cccc2ccccc12` was run?
Answer: Its activation factor is inactive: 0.9.

Question: For `Cc1cc(SC(NC=O)C(Cl)(Cl)Cl)ncn1` (configuration not stated), which activation factor is on record?
Answer: Its activation factor is inactive: 1.2.

— PubChem BioAssay AID1214 (Sanford-Burnham Center for Chemical Genomics, 2008)
